From PMC8040948 (Journal of medicinal chemistry, 2020)

Chains of the proteins cited; added tags and fusions are not shown.
UniProt P05177, whole entry: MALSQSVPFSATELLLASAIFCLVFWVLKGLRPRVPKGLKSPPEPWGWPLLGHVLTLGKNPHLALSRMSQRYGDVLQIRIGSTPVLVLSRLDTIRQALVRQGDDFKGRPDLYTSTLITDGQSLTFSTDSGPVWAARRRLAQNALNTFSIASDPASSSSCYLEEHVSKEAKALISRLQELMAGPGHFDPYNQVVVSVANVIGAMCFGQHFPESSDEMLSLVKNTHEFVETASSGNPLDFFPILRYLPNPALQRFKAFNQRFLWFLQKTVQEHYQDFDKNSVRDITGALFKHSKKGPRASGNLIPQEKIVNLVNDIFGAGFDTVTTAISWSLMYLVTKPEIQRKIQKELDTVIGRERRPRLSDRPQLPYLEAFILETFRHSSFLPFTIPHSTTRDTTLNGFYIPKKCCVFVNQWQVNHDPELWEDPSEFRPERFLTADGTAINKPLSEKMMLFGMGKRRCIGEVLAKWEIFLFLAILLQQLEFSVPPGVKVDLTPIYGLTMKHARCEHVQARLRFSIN
UniProt P08684, whole entry: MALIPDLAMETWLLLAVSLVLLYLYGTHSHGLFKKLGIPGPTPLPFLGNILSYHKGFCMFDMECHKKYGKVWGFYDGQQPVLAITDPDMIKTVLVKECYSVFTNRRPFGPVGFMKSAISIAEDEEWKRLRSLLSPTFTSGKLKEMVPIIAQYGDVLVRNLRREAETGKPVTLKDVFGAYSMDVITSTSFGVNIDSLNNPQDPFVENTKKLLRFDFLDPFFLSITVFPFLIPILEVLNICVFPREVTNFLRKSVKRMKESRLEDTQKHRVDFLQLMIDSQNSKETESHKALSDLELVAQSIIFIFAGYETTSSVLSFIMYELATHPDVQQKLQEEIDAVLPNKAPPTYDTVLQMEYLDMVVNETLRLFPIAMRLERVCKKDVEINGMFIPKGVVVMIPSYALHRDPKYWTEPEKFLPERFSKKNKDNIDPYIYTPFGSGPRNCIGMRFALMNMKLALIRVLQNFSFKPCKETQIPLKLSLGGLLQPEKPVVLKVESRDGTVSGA

Tests used:
other P2YRs = conditions: ref [8],[17]; cited from earlier work
CYP1A2 = CYP1A2 (Homo sapiens, UniProt P05177); experiment: CYP1A2 inhibition
CYP3A4 = CYP3A4 (Homo sapiens, UniProt P08684); experiment: CYP3A4 inhibition
hP2Y14R = biological target: T1, hP2Y14R (Homo sapiens, UniProt Q15391); format: binding; conditions: IC50 at hP2Y14R
T1 sequence (Q15391 1-338): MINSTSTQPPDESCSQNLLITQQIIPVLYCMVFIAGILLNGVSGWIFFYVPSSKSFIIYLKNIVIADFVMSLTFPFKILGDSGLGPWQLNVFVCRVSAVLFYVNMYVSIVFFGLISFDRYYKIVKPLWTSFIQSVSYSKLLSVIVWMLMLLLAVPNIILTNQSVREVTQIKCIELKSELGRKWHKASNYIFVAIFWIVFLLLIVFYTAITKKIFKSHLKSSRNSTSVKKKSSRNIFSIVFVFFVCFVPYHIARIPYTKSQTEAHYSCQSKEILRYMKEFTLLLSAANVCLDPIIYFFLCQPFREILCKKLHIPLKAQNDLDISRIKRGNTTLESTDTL

Q: With `O=C(O)c1cc(-c2ccc(C3CCNCC3)cc2)c2ccc(-c3ccc(C(F)(F)F)cc3)cc2c1` [Compound 1, 4-[4-(4-piperidinyl)-phenyl]-7-[4-(trifluoromethyl)phenyl]-2-naphthalenecarboxylic acid, reference compound] as the molecule, how does the “activity at other P2YRs” value (other P2YRs) read?
A: inactive

Q: For `O=C(O)c1cc(-c2ccc(C34CCN(CC3)CC4)cc2)c2ccc(-c3ccc(C(F)(F)F)cc3)cc2c1` [Compound 17, 4-(4-(Quinuclidin-4-yl)phenyl)-7-(4-(trifluoromethyl)phenyl)-2-naphthoic Acid], which IC50 (CYP1A2) is on record?
A: 8.69 µM

Q: And the IC50 (CYP3A4)?
A: 3.29 µM

Q: Which IC50 (hP2Y14R) does the source give for `NC(=O)c1ccc(-c2cc(C(=O)O)cc(-c3nc4cc(C(F)(F)F)ccc4[nH]3)c2)cc1` [Compound 32, 4′-Carbamoyl-5-(5-(trifluoromethyl)-1H-benzo[d]imidazol-2-yl)-[1,1′-biphenyl]-3-carboxylic Acid] here?
A: > 10 µM

Q: For `Cc1c(C(=O)O)cc(-c2cn(-c3ccc(C(F)(F)F)cc3)nn2)cc1-c1ccc(C2CCNCC2)cc1` [Compound 34, 2-Methyl-4′-(piperidin-4-yl)-5-(1-(4-(trifluoromethyl)phenyl)-1H-1,2,3-triazol-4-yl)-[1,1′-biphenyl]-3-carboxylic Acid], which IC50 (hP2Y14R) is on record?
A: > 10 µM
